# Laboratory results reported in article PMC11045757, “Group 3 medulloblastoma transcriptional networks collapse under domain specific EP300/CBP inhibition” (Nature Communications, 2024).
# Sequences of proteins named here, by UniProt entry; tags and fusion partners are left off. Residues count along the entry.
# UniProt Q92793, 1085-1192 limits assumed: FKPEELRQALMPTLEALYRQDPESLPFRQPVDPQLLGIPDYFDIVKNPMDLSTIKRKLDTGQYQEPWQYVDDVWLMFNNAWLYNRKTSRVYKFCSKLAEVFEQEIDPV
# UniProt Q92793, whole entry: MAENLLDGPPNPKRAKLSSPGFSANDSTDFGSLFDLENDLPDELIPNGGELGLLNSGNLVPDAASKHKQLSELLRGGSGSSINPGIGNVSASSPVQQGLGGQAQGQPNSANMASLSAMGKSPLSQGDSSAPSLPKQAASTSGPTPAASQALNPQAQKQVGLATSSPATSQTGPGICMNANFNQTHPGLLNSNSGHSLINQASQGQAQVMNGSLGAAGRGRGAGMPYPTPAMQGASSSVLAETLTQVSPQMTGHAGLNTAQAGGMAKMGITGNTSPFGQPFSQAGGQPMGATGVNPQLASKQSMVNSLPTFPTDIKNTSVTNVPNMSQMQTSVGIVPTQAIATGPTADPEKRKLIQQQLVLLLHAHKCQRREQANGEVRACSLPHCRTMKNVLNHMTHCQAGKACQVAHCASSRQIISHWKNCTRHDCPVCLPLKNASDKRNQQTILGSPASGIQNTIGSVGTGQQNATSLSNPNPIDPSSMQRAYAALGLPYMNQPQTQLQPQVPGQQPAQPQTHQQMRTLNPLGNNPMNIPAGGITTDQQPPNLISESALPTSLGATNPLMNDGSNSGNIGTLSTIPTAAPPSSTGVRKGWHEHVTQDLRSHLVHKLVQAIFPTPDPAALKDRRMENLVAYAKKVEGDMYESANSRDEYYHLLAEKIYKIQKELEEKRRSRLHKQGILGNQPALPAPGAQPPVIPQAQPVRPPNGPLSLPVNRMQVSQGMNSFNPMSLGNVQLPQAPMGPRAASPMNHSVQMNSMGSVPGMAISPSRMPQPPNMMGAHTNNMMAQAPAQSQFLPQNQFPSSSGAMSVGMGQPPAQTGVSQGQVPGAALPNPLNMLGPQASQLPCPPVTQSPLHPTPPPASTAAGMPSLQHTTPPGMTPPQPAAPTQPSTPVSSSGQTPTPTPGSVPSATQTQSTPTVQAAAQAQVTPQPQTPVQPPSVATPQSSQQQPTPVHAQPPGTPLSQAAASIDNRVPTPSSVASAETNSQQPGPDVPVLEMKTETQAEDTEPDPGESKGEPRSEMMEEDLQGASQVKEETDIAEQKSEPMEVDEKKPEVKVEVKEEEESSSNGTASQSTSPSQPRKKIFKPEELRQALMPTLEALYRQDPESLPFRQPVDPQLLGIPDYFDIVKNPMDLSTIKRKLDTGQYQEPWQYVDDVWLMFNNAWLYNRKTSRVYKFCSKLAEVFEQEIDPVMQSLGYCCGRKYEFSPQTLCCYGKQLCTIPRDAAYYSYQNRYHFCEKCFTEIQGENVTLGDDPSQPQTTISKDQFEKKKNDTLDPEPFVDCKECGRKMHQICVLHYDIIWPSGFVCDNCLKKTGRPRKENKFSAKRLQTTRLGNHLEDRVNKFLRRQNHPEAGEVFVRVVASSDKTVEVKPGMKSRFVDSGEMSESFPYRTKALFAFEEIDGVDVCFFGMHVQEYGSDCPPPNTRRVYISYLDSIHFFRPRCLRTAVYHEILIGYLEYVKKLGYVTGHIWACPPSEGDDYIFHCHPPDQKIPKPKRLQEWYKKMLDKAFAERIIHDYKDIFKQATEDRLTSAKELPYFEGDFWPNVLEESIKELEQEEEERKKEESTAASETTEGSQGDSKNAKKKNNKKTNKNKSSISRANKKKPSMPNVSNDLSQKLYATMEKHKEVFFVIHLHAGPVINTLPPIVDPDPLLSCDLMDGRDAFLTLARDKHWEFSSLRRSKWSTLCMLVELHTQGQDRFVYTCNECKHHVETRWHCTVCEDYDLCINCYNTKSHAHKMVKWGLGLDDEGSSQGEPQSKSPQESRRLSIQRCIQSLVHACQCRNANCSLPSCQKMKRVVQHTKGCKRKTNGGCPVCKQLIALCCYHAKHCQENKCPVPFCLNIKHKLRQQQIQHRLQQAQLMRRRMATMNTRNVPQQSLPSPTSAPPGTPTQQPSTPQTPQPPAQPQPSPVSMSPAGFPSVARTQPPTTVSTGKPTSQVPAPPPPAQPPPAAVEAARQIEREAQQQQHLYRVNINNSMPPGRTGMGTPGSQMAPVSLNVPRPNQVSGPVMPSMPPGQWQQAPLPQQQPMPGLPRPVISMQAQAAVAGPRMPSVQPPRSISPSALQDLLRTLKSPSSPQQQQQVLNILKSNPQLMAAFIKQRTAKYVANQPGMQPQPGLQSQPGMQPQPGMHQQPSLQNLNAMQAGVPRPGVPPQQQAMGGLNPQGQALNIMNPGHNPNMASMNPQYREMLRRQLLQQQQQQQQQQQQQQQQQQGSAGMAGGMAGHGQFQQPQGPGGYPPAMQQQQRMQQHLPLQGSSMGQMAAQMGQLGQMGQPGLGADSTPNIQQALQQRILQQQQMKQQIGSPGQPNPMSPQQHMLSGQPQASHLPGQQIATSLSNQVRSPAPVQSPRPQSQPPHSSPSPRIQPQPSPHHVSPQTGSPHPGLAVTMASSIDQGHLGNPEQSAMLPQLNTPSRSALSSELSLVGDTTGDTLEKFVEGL
# UniProt Q92793, 1081-1197: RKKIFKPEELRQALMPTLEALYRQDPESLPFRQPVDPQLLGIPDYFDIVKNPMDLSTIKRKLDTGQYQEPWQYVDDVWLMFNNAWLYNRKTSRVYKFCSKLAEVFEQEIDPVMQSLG
# UniProt Q09472, 1048-1161: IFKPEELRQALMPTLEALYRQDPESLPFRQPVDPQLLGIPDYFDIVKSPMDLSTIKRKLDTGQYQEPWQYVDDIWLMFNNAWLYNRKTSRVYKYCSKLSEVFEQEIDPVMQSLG
# “And” between values parts separate entries of the source, which are not always exact repeats. Equal values may be shown once. Read-outs that look alike come from different tables or passages of the source.
# What was measured:
# [1] = target: GFP-tagged CBP bromodomain (Homo sapiens, UniProt Q92793); assay: Microscale thermophoresis (MST); format: binding
# Description: MST experiments were performed in a Monolith NT.115 Pico instrument (NanoTemper Technologies) following published procedures. […] MST traces were recorded using standard parameters: 5 s MST power off, 30 s MST power on and 5 s MST power off. Measurements were taken at -1-0 s (cold region) and 10 s (hot region) and data were analyzed using the NTAnalysis software.
# CREBBP = CREBBP (Homo sapiens, UniProt Q92793); assay: biochemical; details: read-out: Percent Control CREBBP
# Description: Dose-response sequencing data was processed to determine area-under-the-curve (AUC) values, as previously described[33],[34]. Tumor type assignments for cell lines were determined using the Cancer Cell Line Encyclopedia annotations. […] Tumor grouping analyses were restricted to those with >3 representative cell lines. AUC data for each compound was normalized across all cell lines treated by calculating the median AUC per treatment and then median normalizing the data.
# CBP bromodomain [2] = target: T1, CBP bromodomain (Homo sapiens, UniProt Q92793); assay: Differential scanning fluorimetry (DSF) thermal shift; format: binding; details: for ΔTm (°C): DSF thermal shift vs DMSO, Fig 2B
# T1 construct: CBP (residues 1081-1197); 6xHis (cleaved yes); host or cells: E. coli BL21 (DE3) RIL
# Description: (§1) After 18 h growth, the culture was harvested by centrifugation at 6000 × g for 25 min and stored at -80 °C. Harvested cell pellets were re-suspended in 50 mM Na/K phosphate buffer (pH 7.4) containing 100 mM NaCl, 40 mM imidazole, 0.01% w/v lysozyme and 0.01% v/v Triton X-100 at 4 °C for 1 h, subjected to sonication and the lysate was clarified by centrifugation (30,000 × g for 45 min at 4 °C). Proteins were purified by FPLC at 4 °C using columns and chromatography materials from GE Healthcare. […] Proteins were purified to homogeneity by size exclusion chromatography using Superdex 75 equilibrated with elution buffer (50 mM HEPES pH 7.5, 100 mM NaCl, 2 mM DTT). […] Pool fractions were combined, concentrated to 10–12 mg/ml, and aliquots were flash-frozen in liquid N2 and stored at −80 °C.
# DSF experiments were performed with an Applied Biosystem StepOnePlus real-time PCR system (Thermo Fisher Scientific) using 96-well format plates, assayed in quadruplicate. For thermal shift determination, 5 μM protein was mixed with 100 μM compound in 50 mM HEPES, pH 7.5, 150 mM NaCl, 2 mM DTT, 2% DMSO, 5X SYPRO Orange (Thermo Fisher Scientific) in 20 μL reaction volumes.
# EP300 bromodomain = target: T2, EP300 bromodomain (Homo sapiens, UniProt Q09472); assay: Isothermal titration calorimetry (ITC); format: binding; details: single ITC experiment, data fit ± SEM
# T2 construct: 6xHis (cleaved yes); host or cells: E. coli BL21 (DE3) RIL
# Description: as §1
# [3] = system: 460 barcoded cancer cell lines; assay: PRISM pooled barcoded cancer cell line growth screen, 10-point dose-response, 5 days, AUC; format: cell-based; set-up: scale not given here
# Source text: Several small molecule inhibitors of distinct protein domains of EP300/CBP are available, though the majority target the histone acetyltransferase domain (HAT) or bromodomain (BRD)[5],[10],[21],[22]. […] Thus, these compounds provide a unique opportunity to compare the effects of domain-specific inhibition of EP300 and CBP. We used these tools to investigate the relative contribution of the EP300/CBP BRD or HAT domain to tumor cell growth (Fig. 1a). To do so, we performed 10-point, dose-response growth assays using mixed pools of 460 barcoded cancer cell lines, over five days of treatment in vitro[33],[34]. Growth was measured using an area-under-the-curve (AUC) approach (Supplementary Table 1, Supplementary Fig. 1a). […] Given potential differences in compound penetration and solubility, and to compare the relative cell line and tumor-specific effects of these two compounds in assays performed non-simultaneously, we performed a median normalization of each dataset (Supplementary Table 2). […] Next, we sought to use this to examine the relative cell line-specific response to either A485 or CCS1477.
# CBP bromodomain [4] = target: T1, CBP bromodomain; assay: Isothermal titration calorimetry (ITC); format: binding; details: single ITC experiment, data fit ± SEM
# Description: At OD600 of 0.6, the culture was cooled down to 18 °C and induced with 0.1 mM IPTG. After 18 h growth, the culture was harvested by centrifugation at 6000 × g for 25 min and stored at -80 °C. Harvested cell pellets were re-suspended in 50 mM Na/K phosphate buffer (pH 7.4) containing 100 mM NaCl, 40 mM imidazole, 0.01% w/v lysozyme and 0.01% v/v Triton X-100 at 4 °C for 1 h, subjected to sonication and the lysate was clarified by centrifugation (30,000 × g for 45 min at 4 °C). Proteins were purified by FPLC at 4 °C using columns and chromatography materials from GE Healthcare. […] Proteins were purified to homogeneity by size exclusion chromatography using Superdex 75 equilibrated with elution buffer (50 mM HEPES pH 7.5, 100 mM NaCl, 2 mM DTT). All BRDs eluted as monomeric protein and were of crystallization grade quality (>95% purity as judged by SDS-PAGE). […]
# All experiments were conducted using an PEAQ-ITC calorimeter (Malvern Scientific). […] Data were corrected for dilution and analyzed using the MicroCal Origin software to determine the enthalpies of binding (ΔH) and binding constants as described. Thermodynamic parameters were calculated using the basic equation of thermodynamics (ΔG = ΔH − TΔS = −RTlnKB) where ΔG, ΔH and ΔS are the changes in free energy, enthalpy and entropy of binding, respectively. […]
structure (smiles),measurement,setting,value
CO[C@H]1CC[C@H](n2c([C@@H]3CCCC(=O)N3c3ccc(F)c(F)c3)nc3cc(-c4c(C)noc4C)ccc32)CC1 [CCS1477],Kd,"[1]; MO.Affinity Analysis export, single runs, target clGFP-CBPBRD 5e-8, unit inferred, read-out: Kd (fit result of individual MST run)",0.919 nM and 3.02 nM
same,Kd,"[1]; three independent MST experiments, average ± SD, read-out: Kd (nM) CBP (converted)",1.3 nM
same,remaining activity at 1 µM,CREBBP,0.7%
same,ΔTm (°C),CBP bromodomain [2]; CBP bromodomain,17.7 °C
same,∆Tm (°C) CBP,"CBP bromodomain [2]; DSF, 5 μM protein, 100 μM compound, three independent experiments, average ± SD",17.7 ± 0.08 °C and 17.7 °C
same,ΔTm (°C) CBP,"CBP bromodomain [2]; Figure 3A, DSF, CBP bromodomain",17.7 °C
same,ΔTm (°C) CBP,"CBP bromodomain [2]; Figure 3B, DSF, CBP",17.7 °C
same,DSF ΔTm (°C),"CBP bromodomain [2]; Figure 3C, DSF (values equal CBP column)",17.7 °C
same,Kd,EP300 bromodomain,26 nM and 25.5 nM
same,AUC,"[3]; AGS, Gastric Cancer",0.852
same,AUC,"[3]; CHAGOK1, Lung Cancer",0.8771
same,AUC,"[3]; COV644, Ovarian Cancer",0.8768
same,AUC,"[3]; LS1034, Colon/Colorectal Cancer",0.8771
same,AUC,"[3]; MHHES1, Ewing Sarcoma",0.9189
same,AUC,"[3]; SNU398, Liver Cancer",0.8888
same,AUC,"[3]; TE5, Esophageal Cancer",0.8767
same,Kd,CBP bromodomain [4],4 ± 6.7 nM
COc1ccc(CCc2nc3cc(-c4c(C)noc4C)ccc3n2C[C@H](C)N2CCOCC2)cc1Cl [SGC-CBP30],ΔTm (°C),CBP bromodomain [2]; CBP bromodomain,8.5 °C
